# Shown are actives, neighbours in structure and some others; about 2.3% of the full set was active somewhere.
# ASAP1 GAP inh = inhibitors of human ASAP1 ArfGAP activity, primary screen, biochemical, fluorescence polarization; Arf-GAP with SH3 domain, ANK repeat and PH domain-containing protein 1 (Homo sapiens), …; ASAP1-stimulated ARF1 GTP hydrolysis, GDP FP detection; inhibition, % at 16.5 µM; 360,000 tested, 0.19% active; AID 624377, 2012; in the data active = inhibition above about 25%;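 note: 0% = vehicle with enzyme and substrate and 100% = no enzyme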
# ARFGAP1 inh = inhibitors of rat ARFGAP1 GAP activity, primary screen, biochemical, fluorescence polarization, GDP tracer. ADP-ribosylation factor GTPase-activating protein 1 (Rattus norvegicus), Q62848. Arfgap1-stimulated ARF1 GTP hydrolysis, GDP FP detection. inhibition, % at 16.5 µM. 360,000 tested, 0.26% active. AID 651572, 2012;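 active = inhibition above a per-plate limit, mean inhibition of low control wells plus 3 SD, cut at about 25% in these data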;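 note: 0% = DMSO wells with enzyme and 100% = wells lacking Arfgap1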
#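 Repeats: one replicate per compound; assay system: rat Arfgap1 catalytic domain, aa 1-136; times: enzyme reaction 120 min at 25 °C after 20 min preincubation; detection: FP of antibody-bound GDP Alexa 633 tracer, ex 620/em 688 nm; benchmarks: high control wells lacking Arfgap1, low control full reaction with DMSO; reagent: human ARF1(Δ1-17)-GTP substrate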
# NRP1-CendR mod = modulators of CendR peptide binding to NRP-1, primary screen, biochemical, fluorescence polarization, uHTS; Neuropilin-1 (Homo sapiens), O14786; FAM-RPARPAR peptide binding to NRP-1; inhibition, % at 25 µM; 360,000 tested, 0.85% active; AID 602438, 2012;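 active = inhibition or corrected inhibition above about 18%, plus a signal ratio from 0.5 to 1.5, limit read from the data, passing the limit was not always enough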
# UUG fidelity = modulators of start codon recognition fidelity in yeast; AID 602363; hit rate 0.13% among 350,000; activity score, % at 18.7 µM; S. cerevisiae UUG-firefly luciferase reporter, luminescence/redox ratio;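 active = replicate mean at a twofold rise or more, about +100% in these data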;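 note: firefly luciferase made from a UUG start codon reports start codon fidelity; reporter light over untreated wells divided by growth signal over untreated wells; some hits fall short of that in this replicate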
# MC4R antagonist = MC4R antagonists of cAMP signaling, primary screen, cell-based, TR-FRET, antagonist arm of biased-ligand search. Melanocortin receptor 4 (Homo sapiens), P32245. inhibition, % at 6.5 µM. 360,000 tested, 0.48% active. AID 540295, 2011. MC4R-expressing cells, MTII-stimulated cAMP, LANCE TR-FRET;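 active = inhibition above its plate's cutoff, the mean of tested wells on that plate plus 3 SD, cut at about 29% in these data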;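 note: 0% = Melanotan II alone and 100% = Melanotan II plus saturating MCL0020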
#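 Material – human MC4R-expressing U2OS cells · Repeats – no replicates · Detection – TR-FRET with Eu-cAMP and labeled anti-cAMP, 671 nm · Times – compound 30 min, challenge 1 h, detection 1 h · Compound – single nominal compound dose of 6.5 µM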
# MC4R ag barr = MC4R agonists recruiting beta-arrestin, primary screen, cell-based, luminescence, agonist arm of biased-ligand search | U2OS MC4R beta-arrestin complementation; percent of melanotan II response, DMSO zero | activation, % at 8.9 µM | 360,000 tested, 0.98% active | AID 540308, 2011 | Melanocortin receptor 4 (Homo sapiens), P32245;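 active = activation above a per-plate cutoff, the mean activation of sample wells on that plate plus 3 SD, cut at about 8% in these data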
# U2OS cAMP counter = nonselective cAMP signaling inhibitors, parental cells, counter-screen for MC4R biased antagonist project, cell-based, TR-FRET, U2OS, forskolin, triplicate; shares compounds with MC4R antagonist; LANCE TR-FRET; inhibition, % at 6.5 µM; 1,600 tested, 26% active; AID 602193, 2012;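 active = mean inhibition over triplicates above the low-control well mean plus 3 SD, set per campaign, cut at about 13% in these data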;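 note: signal is single emission at 671 nm which falls as cellular cAMP rises; 0% = forskolin-stimulated wells and 100% = buffer without forskolin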
# MC4R antag conf = MC4R cAMP antagonists, retest, confirmation, cell-based, TR-FRET. shares compounds with MC4R antagonist. MC4R-expressing cells, MTII-stimulated cAMP. AID 602195, 2012. inhibition, % at 6.5 µM. 1,600 tested, 27% active; in the data active = inhibition above about 29%;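 note: 0% = agonist stimulated wells alone and 100% = agonist stimulated wells plus saturating reference antagonist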
# Numbers without * were called inactive; · = no result given.
1) COC(=O)CSc1cnc2ccccc2n1
2) COC(=O)CSc1nc2ccccc2nc1SCC(=O)OC
3) O=C(N[C@@H]1CC[C@H](CCNS(=O)(=O)c2ccc(F)cc2)O[C@@H]1CO)C1CC1
4) Cc1noc(C)c1NC(=O)N(C)C[C@H]1OCCCC[C@@H](C)Oc2ccc(NS(=O)(=O)c3cn(C)cn3)cc2C(=O)N([C@H](C)CO)C[C@H]1C
5) COCCNC(=O)C[C@H]1CC[C@H]2[C@H](COc3ccc(NC(=O)Nc4ccccc4)cc3C(=O)N2C)O1

Amino acid sequences for entries named in this document (tags omitted).
ADP-ribosylation factor GTPase-activating protein 1 (Rattus norvegicus), Q62848, UniProt Q62848, whole entry, looked up: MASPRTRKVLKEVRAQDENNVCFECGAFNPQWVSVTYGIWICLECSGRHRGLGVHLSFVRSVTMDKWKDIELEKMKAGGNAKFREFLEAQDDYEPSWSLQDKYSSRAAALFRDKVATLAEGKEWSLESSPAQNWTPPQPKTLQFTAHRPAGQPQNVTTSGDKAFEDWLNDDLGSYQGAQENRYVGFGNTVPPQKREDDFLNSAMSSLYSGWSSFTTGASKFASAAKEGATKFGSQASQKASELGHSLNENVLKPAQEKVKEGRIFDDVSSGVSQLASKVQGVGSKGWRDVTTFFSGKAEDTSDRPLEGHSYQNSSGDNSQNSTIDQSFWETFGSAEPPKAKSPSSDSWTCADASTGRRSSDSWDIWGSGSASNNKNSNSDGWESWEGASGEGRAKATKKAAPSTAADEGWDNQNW
Neuropilin-1 (Homo sapiens), O14786, UniProt O14786, whole entry, looked up: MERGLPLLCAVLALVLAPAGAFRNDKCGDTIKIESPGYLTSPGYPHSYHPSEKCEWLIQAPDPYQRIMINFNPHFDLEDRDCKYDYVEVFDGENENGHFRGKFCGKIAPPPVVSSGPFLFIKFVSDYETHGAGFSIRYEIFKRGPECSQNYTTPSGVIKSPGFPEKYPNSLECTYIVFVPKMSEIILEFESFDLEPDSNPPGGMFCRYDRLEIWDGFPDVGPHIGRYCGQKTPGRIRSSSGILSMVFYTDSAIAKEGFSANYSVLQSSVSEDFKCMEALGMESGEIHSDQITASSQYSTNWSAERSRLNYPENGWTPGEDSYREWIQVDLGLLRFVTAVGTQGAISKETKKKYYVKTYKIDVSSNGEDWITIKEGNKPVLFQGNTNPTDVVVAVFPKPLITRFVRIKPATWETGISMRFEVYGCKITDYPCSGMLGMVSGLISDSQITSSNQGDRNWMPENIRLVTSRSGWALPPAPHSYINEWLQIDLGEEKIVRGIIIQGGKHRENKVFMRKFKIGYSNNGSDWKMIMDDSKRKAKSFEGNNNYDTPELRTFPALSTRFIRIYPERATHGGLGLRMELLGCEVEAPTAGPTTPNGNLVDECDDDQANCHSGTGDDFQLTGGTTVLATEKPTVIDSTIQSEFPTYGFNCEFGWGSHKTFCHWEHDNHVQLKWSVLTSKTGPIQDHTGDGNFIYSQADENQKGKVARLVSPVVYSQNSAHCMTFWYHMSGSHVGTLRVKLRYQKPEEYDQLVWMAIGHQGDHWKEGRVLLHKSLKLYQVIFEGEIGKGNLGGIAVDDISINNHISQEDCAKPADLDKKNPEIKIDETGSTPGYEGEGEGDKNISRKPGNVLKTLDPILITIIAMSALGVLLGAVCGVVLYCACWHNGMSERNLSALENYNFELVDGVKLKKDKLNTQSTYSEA
Melanocortin receptor 4 (Homo sapiens), P32245, UniProt P32245, whole entry, looked up: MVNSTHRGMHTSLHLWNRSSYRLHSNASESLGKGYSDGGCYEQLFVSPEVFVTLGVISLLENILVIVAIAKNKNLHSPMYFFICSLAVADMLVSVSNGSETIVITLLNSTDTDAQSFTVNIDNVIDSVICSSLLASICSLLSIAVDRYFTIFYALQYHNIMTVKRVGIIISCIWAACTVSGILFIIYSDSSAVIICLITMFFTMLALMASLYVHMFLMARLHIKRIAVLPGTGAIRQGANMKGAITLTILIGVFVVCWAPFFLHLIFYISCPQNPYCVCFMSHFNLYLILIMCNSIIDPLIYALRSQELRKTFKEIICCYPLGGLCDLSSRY

assay / compound	1	2	3	4	5
ARFGAP1 inh	1	3	·	·	·
U2OS cAMP counter	·	6	·	·	·
MC4R antag conf	·	-4	·	·	·
ASAP1 GAP inh	3	13	·	·	·
NRP1-CendR mod	3	-16	·	·	·
MC4R ag barr	0	1	·	·	·
UUG fidelity	-11	-13	0	0	-10
MC4R antagonist	12	36*	·	·	·

6) COc1cccc(CNS(=O)(=O)/C=C/c2ccc(OC)c(OC)c2)c1
7) CCC(=O)Nc1ccc2c(c1)OC[C@@H](C)N(C(=O)c1cccnc1)C[C@H](C)[C@@H](OC)CN(C)C2=O
8) COc1ccc(CCN2C(=O)CC(N3CCN(S(=O)(=O)c4ccccc4)CC3)C2=O)cc1OC (stereo unspecified)
9) Cc1nc(-c2cccc(NC(=O)c3cccc(S(=O)(=O)N4CCCC4)c3)c2)cs1
10) Cc1nc(-c2cccc(NC(=O)c3ccc(Cl)c(S(=O)(=O)N4CCCC4)c3)c2)cs1

assay / compound	6	7	8	9	10
ARFGAP1 inh	4	·	10	6	5
U2OS cAMP counter	0	·	-1	·	4
MC4R antag conf	6	·	-9	·	-12
ASAP1 GAP inh	-7	·	10	4	8
NRP1-CendR mod	3	·	-2	1	-1
MC4R ag barr	-3	·	-1	-1	-1
UUG fidelity	-8	28	·	21	9
MC4R antagonist	34*	·	33*	16	31*

11) C[C@@H]1CCCCO[C@H](CN(C)Cc2ccc(C(F)(F)F)cc2)[C@H](C)CN([C@H](C)CO)C(=O)c2cc(NC(=O)c3ccncc3)ccc2O1
12) Cc1cc(Sc2nc(N)ncc2[N+](=O)[O-])ncn1
13) Cc1cc(Sc2ncnc(N)c2[N+](=O)[O-])ncn1
14) C[C@@H]1CN([C@@H](C)CO)C(=O)c2cc(C3=CCCC3)cnc2O[C@@H]1CN(C)Cc1ccccc1C(=O)O
15) COc1ccc(NC(=O)Cc2ccc(Cl)c(Cl)c2)cn1

assay / compound	11	12	13	14	15
ARFGAP1 inh	·	5	·	·	-4
U2OS cAMP counter	·	20*	16*	·	·
MC4R antag conf	·	35*	36*	·	·
ASAP1 GAP inh	·	5	·	·	4
NRP1-CendR mod	·	1	10	·	1
MC4R ag barr	·	-2	-1	·	1
UUG fidelity	-2	·	·	17	·
MC4R antagonist	·	40*	38*	·	3

16) COc1ccc(NC(=O)/C(Cl)=C(/Cl)S(=O)(=O)Cc2ccc(C)cc2)cn1
17) O=C(O)c1ccc2c(c1)SC1=NS(=O)(=O)CCN12
18) COc1cccc(-c2ccc3c(c2)[C@H]2[C@H](CCN2S(=O)(=O)c2ccccc2OC)[C@H](CO)N3)c1
19) O=C(Nc1ccc(F)cc1)c1nn(-c2ccccc2)c(=O)cc1Cl
20) Cc1ccc(NC(=O)c2cc(-c3ccccc3)nn2-c2ccccc2)cc1
21) CC1(C(=O)N/N=C/c2c(F)c(F)c(F)c(F)c2F)CC1(Cl)Cl (stereo unspecified)

assay / compound	16	17	18	19	20	21
ARFGAP1 inh	·	8	·	-2	4	-1
U2OS cAMP counter	38*	20*	·	30*	·	11
MC4R antag conf	37*	2	·	38*	·	54*
ASAP1 GAP inh	·	-2	·	5	-4	-9
NRP1-CendR mod	12	1	·	5	-4	1
MC4R ag barr	-4	1	·	-1	0	-3
UUG fidelity	-15	-21	-5	·	-15	-14
MC4R antagonist	40*	29*	·	31*	19	32*

# Retrieved by structure from the list above:
19) O=C(Nc1ccc(F)cc1)c1nn(-c2ccccc2)c(=O)cc1Cl
20) Cc1ccc(NC(=O)c2cc(-c3ccccc3)nn2-c2ccccc2)cc1

assay / compound	19	20
ARFGAP1 inh	-2	4
U2OS cAMP counter	30*	·
MC4R antag conf	38*	·
ASAP1 GAP inh	5	-4
NRP1-CendR mod	5	-4
MC4R ag barr	-1	0
UUG fidelity	·	-15
MC4R antagonist	31*	19

# Screening data: PubChem, several laboratories
